Measured values published in US10766873B2, “Zuclopenthixol hydrochloride derivatives and Ebselen derivatives as ErbB2 inhibitors” (Centre National de la Recherche Scientifique (CNRS), priority 2016, dated 2020).

Key:
ErbB2 = ErbB2 (Homo sapiens, UniProt P04626); assay: ErbB2 phosphorylation in SKBR3 cells, dot blot (4G10); details: tested form: HCl
SKBR3 [1] = assay: MTT cell proliferation, SKBR3; details: tested form: HCl
Method: (§1) We then analyzed the ability of ZU and EB1 and their derivatives to decrease the ErbB2-dependent cell proliferation. We used the ErbB2-overexpressing human breast cancer cell lines SKBR3 and BT474, as well as two non ErbB2-dependent breast cancer cell lines MCF7 and MDA-MB-231 and normal human endothelial cells (HBMEC) as a control, to discard compounds presenting non-specific toxic effects.
(§2) SKBR3, BT474, MCF-7, MDA-MB-231 and HBMEC cells were treated with the compounds as indicated, and cell proliferation was determined each day during 3 days using an MTT assay. Non treated cells were included as a negative control.
A solution of ZU in cis conformation was mixed to a solution of ZU in trans conformation (1:1) to obtain ZU in a 50/50 cis/trans conformation and their respective effects on ErbB2 activation and ErbB2-dependent cell proliferation were analyzed as previously by dot blot analysis using an anti-phosphotyrosine antibody (clone 4G10) and by MTT assays in the ErbB2-overexpressing breast cancer cell line SKBR3, BT474, or HBMEC as a control.

HBMEC = assay: MTT cell proliferation, HBMEC control cells; type: cell-based, human; details: tested form: HCl
Method: as §1, §2
(§3) The WT, V777L or V842I ErbB2-transfected cells were treated with 5 or 10 μM of ZU and cell proliferation was determined each day during 3 days using an MTT assay. Non transfected cells were included as a negative control.
(§4) The WT, V777L or V842I ErbB2-transfected cells were treated with 5 or 10 μM of EB1 and cell proliferation was determined each day during 3 days using an MTT assay. Non transfected cells were included as a negative control.

MCF7 = assay: MTT cell proliferation, MCF7; details: 5 μM; tested form: HCl
Method: as §1, §2

SKBR3 [2] = assay: Soft agar colony formation, SKBR3; details: 5 or 10 μM, 6 weeks; tested form: HCl
Method: A bottom layer of 0.8% agarose in DMEM supplemented with 20% SVF and penicillin/streptomycin was added to 24 well plates before seeding 25.10^3 SKBR3 or BT474 cells/well in a 0.6% agarose top layer. Cells were left untreated or treated with 5 or 10 μM ZU or EB1 or 5 μM AG1478 (a non-specific ErbB2 kinase inhibitor) as a positive control. Treatments were renewed 3 times a week. After 6 weeks, the number of colonies and their size were quantified using image J software. The colony formation is illustrated for each condition. Data are presented as mean±SEM.

[3] = tested on: human breast cancer BT474 cells; assay: BT474 orthotopic xenograft in mammary fat pad of mice; details: tested form: HCl
Method: 5.10^6 BT474 cells were implanted orthotopically in the mammary fat pad of NOD.Cg-Prkdc scid/J mice, in the presence of estradiol supplement. After 4 weeks, mice were injected with ZU (N=10, 5 mg/kg per day for 5 days a week, followed by 3 mg/kg for 5 days a week during three weeks for N=6) or vehicle (N=10, 10% DMSO in PBS). Mice weight and tumor volume were measured 3 and 2 times a week respectively.
5.10^6 BT474 cells were implanted orthotopically in the mammary fat pad of NOD.Cg-Prkdc scid/J mice, in the presence of estradiol supplement. Nineteen days after implantation, treatment began and mice were injected i.p. with […] ZU (5 mg/kg per day for 3 days a week, during three weeks for N=9), 4 mg/kg ZU (5 days a week during three weeks, N=8) or vehicle (N=9, 10% DMSO in PBS). Mice weight and tumor volume were measured 3 and 2 times a week respectively.
5.10^6 BT474 cells were implanted orthotopically in the mammary fat pad of NOD.Cg-Prkdc scid/J mice, in the presence of estradiol supplement. After 4 weeks, mice were injected with EB1 3 mg/kg (N=8), 5 mg/kg (N=6) or vehicle (N=8, 10% DMSO in PBS) twice a day for 5 days a week (2×D), during 2 weeks then once per day (1×D) during 3 days. Mice weight and tumor volume were measured 3 and 2 times a week respectively.

[4] = biological target: peptide encoding the juxtamembrane region of ERBB2 (Homo sapiens, UniProt P04626); assay: Surface Plasmon Resonance, Biacore T200; details: tested form: HCl
Text: We analyzed the ability of ZU to directly bind to the juxtamembrane domain of ErbB2 using Surface Plasmon Resonance assays on a Biacore T200. For that, we compared the affinity of the compounds for a peptide containing the Ezrin binding motif ILIKRRQQKIRKYTMRRL of ErbB2 immobilized on sensorchips, which was reflected by the amplitude of the SPR response.
Compound ZU and EB1 were validated for their interaction with peptide encoding the juxtamembrane region of ERBB2 using a Biacore T200 (IECB, Bordeaux). Biotinylated peptide encoding the juxtamembrane region of ERBB2 (biotin-ILIKRRQQKIRKYTMRRL) has been immobilized on Streptavidin-coated sensor chips (Series S sensor chip SA, GE Healthcare). Compound ZU in PBS, 0.02% tween20 buffer was used as analyte, and the Ezrin FERM domain has been used as a positive control.

p95 ErbB2 = assay: Western blot pY1248, p95 ErbB2 in transfected HBMECs; details: 0, 5, 10 or 20 μM, 24 h; tested form: HCl
Method: HBMECs cells were transfected with plasmids encoding WT, ΔEBM (a form of ErbB2 carrying mutations in the juxtamembrane domain and unable to bind to the Ezrin FERM domain), V659E or p95 ErbB2 and treated with 0, 5, 10 or 20 μM ZU for 24 h. ErbB2 activation was then analyzed by western blot analysis using a phospho-ErbB2-specific antibody (pY1248) and a tubulin antibody as a loading control. Histograms show optical density quantification.

N87 = assay: MTT cell proliferation, N87; details: 3, 5 and 7 μM, day 3; tested form: HCl
Method: The ErbB2-overexpressing gastric cancer cell line N87 and MDAMB-231, a non ErbB2-overexpressing breast cancer cell line were treated with 3, 5 or 7 μM of ZU and cell proliferation was determined each day during 3 days using an MTT assay. Non treated cells were included as a negative control.

[5] = tested on: WT ErbB2-transfected cells; assay: MTT cell proliferation, WT ErbB2-transfected HBMEC; details: 10 μM, day 3; tested form: HCl
Method: as §3, §4

[6] = tested on: V842I ErbB2-transfected cells; assay: MTT cell proliferation, V842I ErbB2-transfected HBMEC; details: 10 μM, day 3; tested form: HCl
Method: as §3, §4

In the case of `OCCN1CCN(CC/C=C2/c3ccccc3Sc3ccc(Cl)cc32)CC1`, the “ErbB2 activation 24 h Max inhibition, %” value (ErbB2; SKBR3, 24 h, 0.625-80 μM) is reported as 93.22%, the “maximum inhibition of ErbB2 phosphorylation” value (ErbB2; SKBR3, 24 h) is reported as 90% and the “effect on ErbB2 phosphorylation/activation (in words)” value (ErbB2; SKBR3) is reported as “similarly inhibited ErbB2 activation”. For the same compound, the EC50 (ErbB2; read-out: ErbB2 activation 24 h EC50, SKBR3, 24 h) was 22.4 µM, the IC50 (ErbB2; read-out: IC50 ErbB2 phosphorylation, SKBR3, 24 h) was 20 µM and the “reduction of SKBR3 proliferation” value (SKBR3 [1]; 5 μM, day 2 and 3) was 50%. For the same compound, the “Cell proliferation at d 3 SKBR3 Max inhibition, %” value (SKBR3 [1]; day 3) was 46.2%, the EC50 (SKBR3 [1]; read-out: Cell proliferation at d 3 SKBR3 EC50, day 3) was 14.1 µM and the IC50 (SKBR3 [1]; read-out: IC50 SKBR3 proliferation) was 14 µM. The “effect on HBMEC proliferation (in words)” value (HBMEC; 5 μM) was “without any effect”, the “effect on proliferation of non-transfected HBMECs cells (in words)” value (HBMEC; 10 μM, day 3) was “no effect” and the “effect on MCF7 proliferation (in words)” value (MCF7) was “without any effect”. The “anchorage-independent growth of SKBR3 (in words)” value (SKBR3 [2]) was “inhibited the anchorage-independent growth”, the “tolerability in mice (in words)” value ([3]; 5 mg/kg 3 days a week or 4 mg/kg 5 days a week) was “well tolerated” and the “tumor progression in vivo (in words)” value ([3]; 5 mg/kg per day 5 days a week, followed by 3 mg/kg 5 days a week during three weeks) was “completely blocked tumor progression”. For the same compound, the “mice dizzy or sleepy for long, lost weight and finally died” value ([3]; 5 mg/kg, after several injections) was 3 mice out of 10, the “tumor progression in vivo (in words)” value ([3]; i.p., 5 mg/kg per day 3 days a week, or 4 mg/kg 5 days a week, three weeks) was “dramatically reduced tumor progression” and the “tolerability in mice (in words)” value ([3]; switched at 3 mg/kg) was “well supported”. The “binding to immobilized ErbB2 juxtamembrane peptide (SPR, in words)” value [4] was “bound to the immobilized peptide”, the “activation of p95 ErbB2 (in words)” value (p95 ErbB2) was “decreased the activation” and the “decrease of the proliferation of N87” value (N87) was 35%. For the same compound, the “decrease of the proliferation of WT transfected HBMEC” value [5] was 50% and the “decrease of the proliferation of V842I transfected HBMEC” value [6] was 65%.
